Drawing on patent US20240376189A1, this text covers Sheep RBC lysis assay IC50 for one substance.

This test deals with human C5 (human) (UniProt P01031). Description: cell-based or functional assay.

With Soliris (antibody), the Sheep RBC lysis assay IC50 is 1.23 µg/mL.
